# scFv variants of Ab-14 (light chain) against a SARS-CoV-2 spike peptide

Reference: Li et al. 2023, doi:10.1038/s41467-023-39022-2. File: FLAb, binding data.

Target: peptide PDVDLGDISGINAS, taken from heptad repeat 2 (HR2) of SARS-CoV-2 spike.

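The parent was found by panning a naive human phage display library on the peptide. These sequences belong to a second round, designed from the earlier measurements on random variants of the parent. Group labels follow the data file (Ctrl: baseline library sampled from a position-specific scoring matrix, with some repeated check sequences; En: ensemble of fine-tuned language models; GP: Gaussian process model; HC: hill climbing; Gen: genetic algorithm; Gibbs: Gibbs sampling; a sequence that several methods proposed may carry one label only). Affinity was read by AlphaSeq, a pooled yeast mating assay with surface-displayed partners. After mating in shaken culture at 30 °C for 16 h, diploids were selected and their barcode pairs sequenced. Scores were corrected for input abundance and mapped to Kd with protein pairs of known affinity run in the same pool. Mating was done six times.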

Parent: Ab-14, a human scFv built as VH, a 15-residue (Gly4Ser)3 linker, VL. Only the CDRs of the light chain vary.
VH: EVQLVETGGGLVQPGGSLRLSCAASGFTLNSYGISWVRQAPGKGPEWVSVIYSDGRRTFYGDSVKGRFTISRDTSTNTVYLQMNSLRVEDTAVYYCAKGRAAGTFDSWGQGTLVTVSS
VL: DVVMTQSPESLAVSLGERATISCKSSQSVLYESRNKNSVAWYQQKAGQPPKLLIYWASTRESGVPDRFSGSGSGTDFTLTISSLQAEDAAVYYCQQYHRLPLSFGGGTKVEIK

Variants are written as CDR1, CDR2 and CDR3 of the light chain (limits as in the source). Parent: KSSQSVLYESRNKNSVA, WASTRES, QQYHRLPLS. Affinities are written as log10 Kd with Kd in nM; a lower number is a better binder. Replicates are averaged; those with no signal do not enter the mean. An entry "not detected" has no value in the source: the pair was not observed among the diploids in any replicate. This suggests poor binding but is not conclusive. The range of this assay differs from that of the first round, and the authors advise against merging the two.

{"CDR-L1": "KLSQSVLYESRNKNSVA", "CDR-L2": "DASTREV", "CDR-L3": "QQYHRLPLS", "group": "GP_Gen", "mean, log10 nM": "1.02", "detected": "6 of 6"}
{"CDR-L1": "HSSPSVLMESRNKNSVA", "CDR-L2": "DASTRES", "CDR-L3": "QQYHRLPLS", "group": "GP_HC", "mean, log10 nM": "-0.21", "detected": "6 of 6"}
{"CDR-L1": "KISQSELYESRNKNSVA", "CDR-L2": "NASQRMS", "CDR-L3": "QQYHRLPLS", "group": "GP_Gen", "mean, log10 nM": "0.25", "detected": "6 of 6"}
{"CDR-L1": "IVSQSMLGESRNKNSVA", "CDR-L2": "HASTREN", "CDR-L3": "QQYHRLPLS", "group": "GP_Gibbs", "mean, log10 nM": "0.10", "detected": "6 of 6"}
{"CDR-L1": "KMSQSWLMESRNSNSVA", "CDR-L2": "EASTRLS", "CDR-L3": "QQYHRLPLS", "group": "GP_Gibbs", "mean, log10 nM": "0.15", "detected": "6 of 6"}
{"CDR-L1": "HMNHEYLEYSNYENNIA", "CDR-L2": "HGSQRLY", "CDR-L3": "QQYSHLPLS", "group": "En_Gibbs", "mean, log10 nM": "0.31", "detected": "6 of 6"}
{"CDR-L1": "KLSGSVLYESRNKNNVA", "CDR-L2": "GASTRES", "CDR-L3": "QQYHRLPLS", "group": "GP_Gen", "mean, log10 nM": "-0.96", "detected": "6 of 6"}
{"CDR-L1": "KSSESVLYESRNKNSVA", "CDR-L2": "WASTRES", "CDR-L3": "QQYHRLPLS", "group": "Ctrl", "mean, log10 nM": "0.93", "detected": "6 of 6"}
{"CDR-L1": "KLSQSVNLTGKNKNSVA", "CDR-L2": "ELSFREK", "CDR-L3": "QQYERLPLS", "group": "En_HC", "mean, log10 nM": "1.51", "detected": "6 of 6"}
{"CDR-L1": "KLSMVHGHLSMAENNVA", "CDR-L2": "EMVTREK", "CDR-L3": "QQYNRLPLS", "group": "En_Gen", "mean, log10 nM": "0.47", "detected": "6 of 6"}
{"CDR-L1": "ILSQMMLTAGNKHSSVA", "CDR-L2": "QANNRES", "CDR-L3": "QQYHRLPLS", "group": "En_HC", "mean, log10 nM": "1.38", "detected": "6 of 6"}
{"CDR-L1": "HSSDSVLYESRNGNSVA", "CDR-L2": "NASTREA", "CDR-L3": "QQYHRLPLS", "group": "GP_HC", "mean, log10 nM": "0.70", "detected": "6 of 6"}
{"CDR-L1": "KMSQSVPYEERNWNSVA", "CDR-L2": "NASKRLS", "CDR-L3": "QQYHRLPLS", "group": "GP_Gibbs", "mean, log10 nM": "0.00", "detected": "6 of 6"}
{"CDR-L1": "MVSMNIYGEYRMRDNVA", "CDR-L2": "HASMREK", "CDR-L3": "QCYDRLPLS", "group": "En_Gen", "mean, log10 nM": "2.16", "detected": "6 of 6"}
{"CDR-L1": "KIGGVTNGISRNKNSVA", "CDR-L2": "EQSTRED", "CDR-L3": "QQYNRLPLS", "group": "En_HC", "mean, log10 nM": "0.12", "detected": "6 of 6"}
{"CDR-L1": "KSSPSVLYEDRNMNSVA", "CDR-L2": "MASTRES", "CDR-L3": "QDYHRLPLG", "group": "Ctrl", "mean, log10 nM": "not detected", "detected": "0 of 6"}
{"CDR-L1": "MVTQMAMSGMTNKRSVA", "CDR-L2": "NAETREK", "CDR-L3": "QQYHRLPLI", "group": "En_Gen", "mean, log10 nM": "not detected", "detected": "0 of 6"}
{"CDR-L1": "TIGQSTLMESTNRNNVA", "CDR-L2": "QMSTREK", "CDR-L3": "QQYDRLPLS", "group": "En_HC", "mean, log10 nM": "0.63", "detected": "6 of 6"}
{"CDR-L1": "HMSMLTMMGMRHMNSVA", "CDR-L2": "QMTTREN", "CDR-L3": "QQYDRLPLM", "group": "En_Gen", "mean, log10 nM": "1.96", "detected": "1 of 6"}
{"CDR-L1": "TISQMLLMQTSHKNSVA", "CDR-L2": "GEETRYD", "CDR-L3": "QQYHRLPLS", "group": "En_HC", "mean, log10 nM": "0.20", "detected": "6 of 6"}

3 of these entries, quoted again:

CDR-L1	CDR-L2	CDR-L3	group	mean, log10 nM	detected
KIGGVTNGISRNKNSVA	EQSTRED	QQYNRLPLS	En_HC	0.12	6 of 6
IVSQSMLGESRNKNSVA	HASTREN	QQYHRLPLS	GP_Gibbs	0.10	6 of 6
MVTQMAMSGMTNKRSVA	NAETREK	QQYHRLPLI	En_Gen	not detected	0 of 6

The authors' rule: three or more of the six replicates give a measured affinity, fewer mean a poor binder. The parent sequence was in this pool as ten entries: three were never detected, three once, and four in most replicates, with averages from 0.34 to 2.37. Empty control strains, which show no peptide, gave a signal in 4% of pairings with all light chain designs; the median was 2.64 and 95% of these signals were weaker than 1.59. No background was subtracted.